Data on 3 compounds can be found in ChEMBL document CHEMBL1933021, “Novel and selective spiroindoline-based inhibitors of Sky kinase” (Bioorg Med Chem Lett, 2012).

Amino acid sequences for entries named in this document (tags omitted). A change or cut given only in a name is not applied to a line headed by its entry.
UniProt P08581: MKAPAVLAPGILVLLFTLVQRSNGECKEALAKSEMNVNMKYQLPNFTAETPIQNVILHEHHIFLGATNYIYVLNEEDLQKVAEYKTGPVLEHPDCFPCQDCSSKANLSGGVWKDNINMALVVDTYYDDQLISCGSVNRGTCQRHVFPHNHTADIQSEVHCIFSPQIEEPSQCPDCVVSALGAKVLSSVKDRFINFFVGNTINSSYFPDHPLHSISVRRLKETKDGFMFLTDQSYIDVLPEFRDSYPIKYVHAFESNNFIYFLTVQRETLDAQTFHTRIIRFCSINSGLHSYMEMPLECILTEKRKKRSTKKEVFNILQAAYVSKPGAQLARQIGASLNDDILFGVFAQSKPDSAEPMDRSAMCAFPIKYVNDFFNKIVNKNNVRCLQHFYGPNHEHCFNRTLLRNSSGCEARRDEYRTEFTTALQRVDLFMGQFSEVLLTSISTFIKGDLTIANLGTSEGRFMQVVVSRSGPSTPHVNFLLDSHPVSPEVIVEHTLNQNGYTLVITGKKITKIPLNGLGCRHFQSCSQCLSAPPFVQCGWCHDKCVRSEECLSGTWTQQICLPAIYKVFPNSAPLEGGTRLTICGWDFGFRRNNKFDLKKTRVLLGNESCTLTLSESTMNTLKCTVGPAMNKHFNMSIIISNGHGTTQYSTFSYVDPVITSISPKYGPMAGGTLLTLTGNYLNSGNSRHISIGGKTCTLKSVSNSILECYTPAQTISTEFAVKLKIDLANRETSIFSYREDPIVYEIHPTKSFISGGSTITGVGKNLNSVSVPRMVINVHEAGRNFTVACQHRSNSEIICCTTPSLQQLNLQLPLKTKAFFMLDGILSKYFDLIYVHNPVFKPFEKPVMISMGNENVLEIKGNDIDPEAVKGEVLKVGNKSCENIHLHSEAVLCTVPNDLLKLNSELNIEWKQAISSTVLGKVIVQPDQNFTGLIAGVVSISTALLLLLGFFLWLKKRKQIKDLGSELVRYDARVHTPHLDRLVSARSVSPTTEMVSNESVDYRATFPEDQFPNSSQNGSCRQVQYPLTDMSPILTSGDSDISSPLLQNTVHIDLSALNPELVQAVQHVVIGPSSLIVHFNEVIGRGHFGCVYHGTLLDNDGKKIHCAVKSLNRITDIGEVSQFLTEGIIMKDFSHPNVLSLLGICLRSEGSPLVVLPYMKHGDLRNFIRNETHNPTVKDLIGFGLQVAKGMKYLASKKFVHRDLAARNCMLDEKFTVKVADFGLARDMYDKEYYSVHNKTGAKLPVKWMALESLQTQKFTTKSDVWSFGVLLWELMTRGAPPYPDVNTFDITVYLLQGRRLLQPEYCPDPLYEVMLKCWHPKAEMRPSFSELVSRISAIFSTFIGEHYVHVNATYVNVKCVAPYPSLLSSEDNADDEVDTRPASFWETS

Activity calls are given as the source filed them. No cut-off for these calls is given here.

Usually IC50 stands for the concentration that inhibits the measured activity by half.

The test system of experiment [1] is Tyro3 (Mus musculus). Put plainly: Inhibition of mouse Sky kinase assessed as inhibition of src substrate phosphorylation by ELISA. Background: ELISA stands for enzyme-linked immunosorbent assay.
The target in experiment [2] is Hepatocyte growth factor receptor (Homo sapiens, UniProt P08581). Put plainly: Inhibition of HGFR.

Turning to `CN1CCC(N2CC[C@@]3(CN(C(=O)c4cc5cc(F)ccc5[nH]4)c4ccccc43)C2)CC1`, the inhibition entry in experiment [1] was “Active”.

As for `O=C(c1cc2ccc(F)cc2[nH]1)N1C[C@]2(CCN(C3CCNC3)C2)c2ccccc21` (stereo partly drawn), the IC50 in experiment [2] was > 30 µM.

Take `N#Cc1ccc2cc(C(=O)N3C[C@@]4(CCN(C5CCNC5)C4)c4ccccc43)[nH]c2c1` (stereo partly drawn): the inhibition result in experiment [1] was “Active”.
